{"source": "ChEMBL document CHEMBL4837204", "about": "“Synthesis, biological, and photophysical studies of molecular rotor-based fluorescent inhibitors of the trypanosome alternative oxidase” (Eur J Med Chem, 2021)", "system": "HEK-293T", "test": "Cytotoxicity against HEK293T cells assessed as reduction in cell viability […] by resazurin dye based fluorescence assay", "settings": "human, 24 h"}
{"smiles": "O=[As]c1ccccc1", "note": "(stereo unspecified)", "values": [{"measurement": "CC50", "result": 460, "unit": "nM"}]}
